Apparent affinities of Ab-91 variants for a coronavirus HR2 peptide

All variants were tested on one target, the spike HR2 peptide PDVDLGDISGINAS (SARS-CoV-2).

Parent scFv Ab-91: VL joined to VH by three GGGGS repeats. Changes lie in the heavy chain CDRs alone.
VL: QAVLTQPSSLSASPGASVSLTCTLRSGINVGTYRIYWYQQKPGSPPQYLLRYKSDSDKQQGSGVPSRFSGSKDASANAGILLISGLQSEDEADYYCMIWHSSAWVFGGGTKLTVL
VH: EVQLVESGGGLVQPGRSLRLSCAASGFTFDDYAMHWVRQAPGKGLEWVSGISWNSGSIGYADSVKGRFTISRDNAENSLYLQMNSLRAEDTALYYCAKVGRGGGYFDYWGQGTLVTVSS

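The parent was found by panning a naive human phage display library on the peptide. AAYL51 was designed without a model: most single CDR substitutions and a random sample of double and triple ones. Affinity was read by AlphaSeq, a pooled yeast mating assay with surface-displayed partners. Pairs that bind mate more often; barcode pairs of the diploids are counted by sequencing. The ratio of observed to expected reads was calibrated, replicate by replicate, on BCL2-family standards whose Kd was known from biolayer interferometry. The assay was run in three technical replicates.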

Variants are written as CDR1, CDR2 and CDR3 of the heavy chain (limits as in the source). Parent: GFTFDDYAMH, GISWNSGSIGYADSVK, VGRGGGYFDY.
Values are log10 of the apparent Kd in nM; lower means stronger binding.
Averages over replicates are reported, and they cover detected replicates only.
Where no diploid with the target was found in that replicate, the entry reads "nd": below detection, most likely a poor binder, though not proof of it.
Nonspecific signal, from three strains lacking the peptide, appeared in 21% of pairings of library AAYL51, centred on 4.54 (5% of these signals below 3.26); values are not corrected for it. For each scFv, signals with the empty controls are counted beside the result, with their mean in brackets.

CDR-H1,CDR-H2,CDR-H3,"log10 Kd, replicates","log10 Kd (nM), mean",control signals
GFTFDLYAMH,GISWESGSIGYADSVK,VGRGGGYCDY,nd / nd / nd,nd,1 of 9 (2.91)
GFTFDDYAMH,GISWNSGSQGAADSVA,VGRGGGYFDY,nd / 5.35 / nd,5.35,3 of 9 (5.49)
GFTFDDYAMH,GINWNSGSIGYADSVK,VGRSGGYFDA,nd / nd / nd,nd,1 of 9 (3.93)
GFTFDDYMMH,GISWNSGSIGYADSVK,VGRQGGYMDY,nd / nd / nd,nd,0 of 9
GFTFDDYAMH,RISWNSGSIGYADSVK,VGRGGGYCDY,nd / 4.61 / nd,4.61,2 of 9 (4.44)
GFTFDDYAWH,GISWNSGSIGYADSVK,VGFGGGYYDY,4.68 / 4.33 / 5.52,4.84,7 of 9 (4.80)
GHTFVDKAMH,GISWNSGSIGYADSVK,VGRGGGYFDY,nd / 4.49 / nd,4.49,5 of 9 (4.07)
AFVFDDYHMH,GISWNSGSIGYADSVK,VGRGGGYFDY,nd / nd / nd,nd,0 of 9
GFTFDDYKMH,GISWNSGSIGIAKSVK,VGRGGGYFDY,nd / nd / nd,nd,2 of 9 (4.20)
GFTFDDFAMH,GISWNSGSIGYAMSVK,VGQGGGYFDY,nd / nd / nd,nd,1 of 9 (2.77)
GFTFDDYAMH,GIHWNSGSIGYADSVK,VEFGGGYFDY,4.72 / nd / nd,4.72,1 of 9 (4.16)
GFTFDDRAVH,GISWNSGSIGYADSVK,VGRGGGYFDY,nd / nd / nd,nd,1 of 9 (2.17)
GFTFDDYAMH,GISWISGSIGYADSVK,VGRFGLYFDY,nd / 4.00 / nd,4.00,0 of 9
GFTFDDYAML,GESWNSGSIGYAPSVK,VGRGGGYFDY,nd / nd / nd,nd,2 of 9 (4.98)
GFTFADYAAH,GISWNSGSIGYADSVK,VGHGGGYFDY,2.75 / 2.90 / 3.33,3.00,3 of 9 (4.38)
GFTFQDYAMH,GISVNSGSIGYADSVK,VGRDGGYFDY,4.08 / nd / nd,4.08,0 of 9
GFWFDDYACH,GISWNSGSIGYADSQK,VGRGGGYFDY,nd / nd / nd,nd,0 of 9
GFTFDDYAGH,GPSWNSGSIGYADSVK,VGRGGGYQDY,nd / 4.13 / nd,4.13,0 of 9
GFTFDDYAMH,GISQNSGSIGYADSDN,VGRGGGYFDY,nd / 5.40 / nd,5.40,0 of 9
GFTFDQYAKH,GISWNSGSISYADSVK,VGRGGGYFDY,3.83 / nd / nd,3.83,5 of 9 (4.25)
GFTFDDYAMH,GISWNSGSIGYMDIVK,VGRGGGYFDK,3.11 / 3.27 / 3.09,3.16,0 of 9
GFTFDDYAMH,HISWNSGSMGYADSVK,VGRCGGYFDY,5.94 / 5.84 / nd,5.89,3 of 9 (4.66)
GFTFDDYAMH,GISWNSGSIGYACSVK,VGRGGGYFQL,3.49 / 3.59 / 5.38,4.15,3 of 9 (5.01)
GFTIDDYAMN,GISWNSGSIGYADSVK,EGRGGGYFDY,4.93 / nd / nd,4.93,0 of 9
GFTFDDYAMH,GISWNSGSIGYADSDK,VADGGGYFDY,nd / nd / 3.81,3.81,0 of 9
GFRFDDYAMH,GISWNSGSIGYADSVK,VGRLGGYSDY,nd / nd / nd,nd,1 of 9 (5.24)
HFTFDDYAMH,GIVWNSGSIGYADSGK,VGRGGGYFDY,nd / nd / nd,nd,2 of 9 (5.04)
GFTFDDYAMH,EISWNSGSIGYADSVK,VGRGGRYFRY,4.65 / nd / nd,4.65,4 of 9 (4.54)
GFTCDDYAKH,GISWNFGSIGYADSVK,VGRGGGYFDY,nd / 6.53 / 4.11,5.32,3 of 9 (5.45)
RFTFDDYAMG,GISWNSGSIGYADSVK,VGRGGGYFDC,nd / 5.70 / nd,5.70,2 of 9 (4.43)
GFTFDDYAMH,DITWNSGSIGYADSVK,VGRGSGYFDY,nd / nd / nd,nd,0 of 9
GFTFDFYAMH,GISVNSGSIGYADSVK,VGRGNGYFDY,nd / nd / nd,nd,0 of 9
GFTFDDYAMH,GISWNSGSIGYQTAVK,VGRGGGYFDY,nd / nd / nd,nd,0 of 9
GFTFDDYKMH,CISWNSGSYGYADSVK,VGRGGGYFDY,4.76 / nd / nd,4.76,1 of 9 (4.42)
GFTFDDQAMH,GIVWNSGSIGYADSVK,VGRRGGYFDY,nd / nd / nd,nd,3 of 9 (4.64)
GFTFDDYATH,GISWNSGSIGYADSVK,VTRGGGYFDY,nd / nd / nd,nd,1 of 9 (3.93)
GDTFDDYAMH,GISWNSGSIGYADTVK,VGRGGGYEDY,3.25 / nd / 4.13,3.69,1 of 9 (4.33)
GFTFDDYAMD,GISWNSGSIGYADSVP,VGRGGGYFDW,nd / nd / nd,nd,0 of 9
GFTFDDYAMH,GIEWNSGSIGYADSVK,VGRGGGYFDY,nd / 4.93 / 3.99,4.46,2 of 9 (3.82)
GFCFDDYAMH,GISWNSGSISYTDSVK,VGRGGGYFDY,4.90 / 4.52 / 5.16,4.86,5 of 9 (4.81)
GFTFDDYAMH,GIEFNSGSFGYADSVK,VGRGGGYFDY,2.76 / 2.98 / nd,2.87,2 of 9 (1.67)
GFTFDDDAMH,NISWNSGSGGYADSVK,VGRGGGYFDY,5.05 / nd / nd,5.05,0 of 9
AFTFDDYAKH,GISWNSGSIGYADSVK,VGRGGRYFDY,nd / nd / nd,nd,0 of 9
GFTFDDYAMH,GISWQSVSIGYADSVK,VGRGGGYFDY,nd / nd / nd,nd,0 of 9
GFTFDDYEMH,GIRWNSGSIGYADSVK,VGRGGGYADY,nd / nd / nd,nd,1 of 9 (4.53)
GFTFDDYAMH,CISWNSGSIGYADSVK,KGRGMGYFDY,nd / nd / nd,nd,0 of 9
GFTFDDYAMH,GGSWNSGSIGYKDSVK,VGRGGGYFWY,nd / nd / 3.00,3.00,2 of 9 (3.54)
GFTFDDYAMH,GISWNSVSRGYADSVK,VGRGGGYFRY,nd / nd / nd,nd,1 of 9 (4.14)

The first 6 variants above that were never detected:

CDR-H1,CDR-H2,CDR-H3,"log10 Kd, replicates","log10 Kd (nM), mean",control signals
GFTFDLYAMH,GISWESGSIGYADSVK,VGRGGGYCDY,nd / nd / nd,nd,1 of 9 (2.91)
GFTFDDYAMH,GINWNSGSIGYADSVK,VGRSGGYFDA,nd / nd / nd,nd,1 of 9 (3.93)
GFTFDDYMMH,GISWNSGSIGYADSVK,VGRQGGYMDY,nd / nd / nd,nd,0 of 9
AFVFDDYHMH,GISWNSGSIGYADSVK,VGRGGGYFDY,nd / nd / nd,nd,0 of 9
GFTFDDYKMH,GISWNSGSIGIAKSVK,VGRGGGYFDY,nd / nd / nd,nd,2 of 9 (4.20)
GFTFDDFAMH,GISWNSGSIGYAMSVK,VGQGGGYFDY,nd / nd / nd,nd,1 of 9 (2.77)

Values reported by Engelhart et al. 2022, doi:10.1038/s41597-022-01779-4 (FLAb copy).